Results taken from the NIST ThermoML archive (doi:10.1016/j.tca.2009.01.008).

Columns and labels:
[1] = molar heat capacity at constant pressure; conditions: 101.33 kPa, Liquid, Vacuum adiabatic calorimetry
[2] = molar heat capacity at constant pressure; xn = mol fraction of the nth substance listed; conditions: 101 kPa, Liquid, Vacuum adiabatic calorimetry

OCCOCCOCCOCCO [tetraethylene glycol]
[1]
Conditions | molar heat capacity at constant pressure [J/K/mol]
303.15 K | 428.5
313.15 K | 430.9
323.15 K | 434.7
333.15 K | 438.5
343.15 K | 443.6
353.15 K | 449.1

OCCOCCOCCOCCO [tetraethylene glycol] + O
molar heat capacity at constant pressure [J/K/mol], [2]
Conditions | 303.15 K | 313.15 K | 323.15 K | 333.15 K | 343.15 K | 353.15 K
x1 = 0.2 | 156 | 157.2 | 158.9 | 161 | 163 | 165.4
x1 = 0.4 | 230.6 | 232.4 | 234.9 | 237.5 | 240.5 | 243.7
x1 = 0.5 | 266 | 267.9 | 270.4 | 273.4 | 277.1 | 280.9
x1 = 0.6 | 300.5 | 302.4 | 305.3 | 308.6 | 312.4 | 316.5
x1 = 0.8 | 366.5 | 369.5 | 373.5 | 377.5 | 382.6 | 388
